This test concerns the target Proto-oncogene tyrosine-protein kinase Src (Mus musculus, UniProt P05480). Put plainly: Inhibition of mouse c-Src tyrosine kinase.

Protein sequences, listed by entry. Tags and fused reporters are not part of them. Lines headed by an entry give the natural chain unless they say otherwise; changes in a name come on top.
UniProt P05480: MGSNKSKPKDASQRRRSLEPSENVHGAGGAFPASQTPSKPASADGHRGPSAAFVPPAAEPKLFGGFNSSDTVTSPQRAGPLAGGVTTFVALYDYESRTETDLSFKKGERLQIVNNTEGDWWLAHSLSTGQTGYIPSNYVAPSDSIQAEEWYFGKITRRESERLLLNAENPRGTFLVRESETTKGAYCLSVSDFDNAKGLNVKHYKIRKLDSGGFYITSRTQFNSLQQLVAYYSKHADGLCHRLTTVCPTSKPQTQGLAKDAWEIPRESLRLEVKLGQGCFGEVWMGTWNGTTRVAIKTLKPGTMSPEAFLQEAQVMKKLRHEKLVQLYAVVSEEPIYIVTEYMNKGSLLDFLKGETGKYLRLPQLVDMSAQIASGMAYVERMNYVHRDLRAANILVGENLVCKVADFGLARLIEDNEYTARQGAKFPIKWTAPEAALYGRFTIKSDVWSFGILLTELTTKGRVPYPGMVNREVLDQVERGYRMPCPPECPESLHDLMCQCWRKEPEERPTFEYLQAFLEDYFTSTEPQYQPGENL

Regarding `CCN(CC)CCOc1ccc(Nc2ncc3cc(-c4c(Cl)cccc4Cl)c(=O)n(C)c3n2)cc1` [PD-0166285], the half-inhibitory concentration (IC50) (commonly the concentration at which inhibition is half-maximal) came out at 9 nM.

The values are drawn from ChEMBL document CHEMBL1131615, “Synthesis and tyrosine kinase inhibitory activity of a series of 2-amino-8H-pyrido[2,3-d]pyrimidines: identification of potent, selective platelet-derived growth factor receptor tyrosine kinase inhibitors” (J Med Chem, 1998).
